uPA generation: cell surface uPA generation inhibition; cell surface uPA generation assay, qHTS; Potency, µM (top dose mostly 38.3 µM), most hits filed as inhibitors; 0.31% of 330,000 active; AID 540303; active means well fitted inhibition curve with a large enough effect; inconclusive means small, poorly fitted or top-dose-only effect; inactive means no such curve, though single readings can be large or run the other way; tested in mouse RAW 264.7 cells; further: nearly all actives have a fitted effect of over 55% in size
TDP1 block: TDP1 (human) enzyme inhibition; Q9NUW8; 0.28% of 350,000 active; Potency, µM (series often up to 130 µM), usual class: inhibitors; AID 485290; recombinant TDP1, AlphaScreen DNA substrate cleavage; further: nearly all actives have a fitted effect of over 40% in size
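Tdp1 1 nM final; 15 min RT w/ cpd; substrate 15 nM, 5 min; beads 10 ug/ml, 10 min; AlphaScreen read. Neg ctrl: no enzyme.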
TDP1 cell CPT: DT40-hTDP1 cell growth loss with CPT. Potency, µM (doses to about 46.2 µM), actives largely listed as inhibitors. chicken DT40 Tdp1-/-;hTDP1 cells + 20 nM CPT, ATP luminescence, 48 h. 12% of 420,000 active. AID 686979; further: nearly all actives have a fitted effect of over 55% in size
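Chicken DT40 Tdp1-/- cells complemented with human TDP1, 400 cells/well, exposed to compounds plus 20 nM camptothecin for at least 48 h at 37 C; viability read as ATP content by CellTiter-Glo luminescence.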
TDP1 cell noCPT: qHTS for Inhibitors of human tyrosyl-DNA phosphodiesterase 1 (TDP1): qHTS in cells in absence of CPT. 15% of 420,000 active. Potency, µM (titrated, usually from 46.2 µM), usual class: inhibitors. DT40 Tdp1-/- hTDP1 cells, no CPT, ATP luminescence, 48 h; further: nearly all actives have a fitted effect of over 55% in size
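Chicken DT40 Tdp1-/- cells complemented with human TDP1, screened without camptothecin (DMSO vehicle only), 400 cells/well. Compounds pin-transferred, cells incubated at 37 °C for at least 48 hr. Growth read as ATP-dependent luminescence (CellTiter-Glo, 30 min at RT).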
miR-21 reporter: miR-21 reporter, rising signal | 340,000 tested, under 10 active | AID 2288 | HeLa miR-21 FLuc reporter, luciferase, 48 h | Potency, µM (titrated, usually from 38.3 µM); active = well fitted rising curve with a large enough effect; inconclusive = small, poorly fitted or top-dose-only effect; inactive = no such curve, though single readings can be large or run the other way;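 further: miR-21 action dims this reporter so a rising signal means less miR-21 action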
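HeLa cells stably expressing CMV-driven firefly luciferase with a downstream miR-21 binding sequence, endogenously expressing miR-21, were treated with titrations (up to about 40uM final) for 48 hours at 37 degree Celsius. Luciferase luminescence was read after lysis.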
Hits are given with their value; – = inactive; ? = inconclusive; · = no result; ! = not confirmed by another sample. In the library only some 16% were active in any assay of this set; here they are far more common. Unless noted, the call rests on the fitted dose curve; in most records, active means well fitted curve in the direction sought with a large enough effect; inconclusive means small, poorly fitted or top-dose-only effect, or another doubt; inactive means no such curve, though single readings can be large; an effect the other way counts as inactive or inconclusive.

SMILES | uPA generation | TDP1 block | TDP1 cell CPT | TDP1 cell noCPT | miR-21 reporter
CCc1ccc2nc(N3CCC(C(=O)NCCC(C)C)CC3)sc2c1 | · | – | ? | ? | –
CCCN(CCC)CCNC(=O)C1CCN(c2nc3ccc(CC)cc3s2)CC1 | · | – | 8.2µM | 6.5µM | –
CCCN(CCC)CCCNC(=O)C1CCN(c2nc3ccc(CC)cc3s2)CC1 | · | – | 5.8µM | 5.2µM | ?
Nc1ccnc2c1ncn2[C@@H]1O[C@H](CO)[C@@H](O)[C@H]1O | · | – | 12µM | 4.6µM | ·
OC[C@H]1O[C@@H](n2cnc3c(=S)nc[nH]c32)[C@H](O)[C@@H]1O | · | · | 12µM | 11µM | ·
Nc1nc(Cl)c2ncn(C3OC(CO)C(O)C3O)c2n1 (stereo unspecified) | – | – | ? | ? | ·
OC[C@H]1O[C@@H](n2cnc3c(NCc4ccccc4)ncnc32)[C@H](O)[C@@H]1O | · | – | 2.7µM | 1.9µM | ·
N#Cc1ncn(C2OC(CO)C(O)C2O)c1N (stereo unspecified) | · | · | 5.8µM | 5.8µM | ·
OC[C@H]1O[C@@H](n2cnc3c(NCCc4ccccc4)ncnc32)[C@H](O)[C@H]1O | · | – | · | · | ·
CCn1cc(Cl)c(C(=O)NNC(=O)CCn2nc(C)c([N+](=O)[O-])c2C)n1 | – | – | – | – | –
O=C(Cn1cnc2c(NCc3ccccc3)ncnc21)NCc1ccccc1 | ? | – | 4.1µM | 2.9µM | ·
CNC(=O)[C@H]1O[C@@H](n2cnc3c(NCc4cccc(I)c4)ncnc32)[C@H](O)[C@@H]1O | – | – | ? | 16µM! | ·
CNC(=O)[C@H]1O[C@@H](n2cnc3c(NCc4ccc(N)cc4)ncnc32)[C@H](O)[C@H]1O | · | – | · | · | ·
CC(C)=CCNc1ncnc2c1c(C#N)cn2C1OC(CO)C(O)C1O (stereo unspecified) | – | · | 5.8µM | 4.1µM | ·
O=[N+]([O-])c1ccc(CSc2ncnc3c2ncn3[C@@H]2O[C@H](CO)[C@H](O)[C@H]2O)cc1 | · | – | · | · | ·
O=[N+]([O-])c1ccc(CSc2ncnc3c2ncn3[C@@H]2O[C@H](CO)[C@@H](O)[C@H]2O)cc1 | – | · | ? | 13µM | ·
OCC1OC(n2cnc3c(NCc4ccccc4O)ncnc32)C(O)C1O (stereo unspecified) | – | · | 1.3µM | 1.5µM | ·
OCC1OC(n2cnc3c(NO)ncnc32)C(O)C1O (stereo unspecified) | · | – | 0.89µM | 5µM | ·
OCC1OC(n2cnc3ncccc32)C(O)C1O (stereo unspecified) | · | · | 7.3µM | 6.5µM | ·
O=C(CN1CCc2ccccc21)NN1CC(=O)N(c2ccccc2)CC1=O | – | – | – | – | –
O=c1[nH]/c(=C\c2ccc([N+](=O)[O-])cc2)c(=O)[nH]/c1=C\c1ccc([N+](=O)[O-])cc1 | · | · | ? | – | ·
O=C(NCCc1ccccc1)NC1CCCCC1 | · | – | – | – | –
COc1cc(/C=C/C(=O)Nc2nnc(CC(C)(C)C)s2)cc(OC)c1OC | – | – | ? | 21µM | –
COc1cc(/C=C/C(=O)Nc2ccncc2)cc(OC)c1OC | – | – | 21µM | ? | –
COc1cc(/C=C/C(=O)Nc2ccc(C(C)=O)cc2)cc(OC)c1OC | – | – | ? | 21µM | –
SMILES | uPA generation | TDP1 block | TDP1 cell CPT | TDP1 cell noCPT | miR-21 reporter
COc1cc(/C=C/C(=O)Nc2nnc(CC(C)C)s2)cc(OC)c1OC | – | – | ? | ? | –
Cc1ccc(CN2CCCn3nc(C(=O)NCc4ccc(OC(C)C)cc4)cc3C2=O)cc1 | · | – | 18µM | 16µM | –
COc1cc(CNC(=O)c2cc3n(n2)CCCN(Cc2ccc(C)cc2)C3=O)cc(OC)c1OC | · | – | ? | ? | –
CCOc1ccccc1CNC(=O)c1cc2n(n1)CCCN(Cc1ccc(C)cc1)C2=O | · | – | 16µM | 15µM | –
COc1cccc(CNC(=O)c2cc3n(n2)CCCN(Cc2ccc(C)cc2)C3=O)c1OC | · | – | 23µM | 16µM | –
COCCNC(=O)c1cc2n(n1)CCCN(Cc1ccc(C)cc1)C2=O | · | – | – | – | –
O=S(=O)(N/N=C\c1ccc2c(c1)OCO2)c1ccccc1 | – | – | – | – | –
Cc1ccc(NC(=O)CNC(=O)CN2C(=O)c3ccccc3C2=O)cc1 | · | · | – | – | ·
O=C(c1ccc([N+](=O)[O-])s1)N1CCN(c2ncccn2)CC1 | · | · | 21µM | ? | ·
Cc1cnc(C(=O)N2CCN(c3ccc(C(F)(F)F)cn3)CC2)cn1 | – | – | – | – | –
O=C(c1ccc([N+](=O)[O-])s1)N1CCN(c2ccc(C(F)(F)F)cn2)CC1 | – | – | 13µM | 16µM | –
O=C(c1ccc(Cl)s1)N1CCN(c2ncccn2)CC1 | – | – | – | ? | –
CCOc1ccc(N2C(=O)C3C(c4ccccc4F)NN(C(=O)c4ccc(C)cc4)C3C2=O)cc1 (stereo unspecified) | – | – | – | – | –
CCOC(=O)c1[nH]c(C)c(CCC(=O)NCc2ccc(OC(C)C)cc2)c1C | · | – | ? | ? | –
CC1CC(C)CN(CCCNC(=O)c2ccc3c(c2)NC(=O)CS3)C1 (stereo unspecified) | – | – | – | – | –
c1ccc(COCCC2CO2)cc1 (stereo unspecified) | · | · | · | · | –
CCSc1ncc(Cl)c(C(=O)N2CCN(c3ccc(OC)cc3)CC2)n1 | · | – | ? | ? | –
CCCS(=O)(=O)c1ncc(Cl)c(C(=O)N2CCN(c3ccc(OC)cc3)CC2)n1 | · | – | 2.1µM | 3.7µM | ?
COc1ccc(/C=C2/SC(=O)N(CCNC(=O)CC(NC(C)=O)c3ccccc3)C2=O)cc1 (stereo unspecified) | – | – | – | ? | –
Cc1cccc(NC(=S)NC2CCCC2)c1 | – | – | ? | 15µM | –
S=C(Nc1ccc(Br)cc1)NC1CCCC1 | – | – | ? | 21µM | –
Cc1cccc(NC(=S)NC2CC3CCCC(C2)N3Cc2cccs2)c1 (stereo unspecified) | ? | – | 23µM | 23µM | –
COc1ccc([C@H]2N[C@]3(CCCN(Cc4ccc(C(F)(F)F)cc4)C3=O)[C@H]3C(=O)N(Cc4ccccc4)C(=O)[C@@H]23)cc1 | · | · | ? | 18µM | ·
O=C1[C@H]2[C@@H](c3ccc(C(F)(F)F)cc3)N[C@]3(CCCN(Cc4ccc(C(F)(F)F)cc4)C3=O)[C@H]2C(=O)N1Cc1ccccc1 | · | · | 18µM | 18µM | ·
COc1ccc([C@H]2N[C@]3(CCCN(Cc4ccco4)C3=O)[C@H]3C(=O)N(Cc4ccccc4)C(=O)[C@@H]23)cc1 | · | · | – | – | ·
COc1ccc(CN2CCC[C@]3(N[C@H](c4ccc(C(F)(F)F)cc4)[C@@H]4C(=O)N(C)C(=O)[C@@H]43)C2=O)cc1 | · | · | 23µM | ? | ·
CC(C)CCN1CCC[C@]2(N[C@H](c3ccc(C(F)(F)F)cc3)[C@@H]3C(=O)N(Cc4ccccc4)C(=O)[C@@H]32)C1=O | · | · | 18µM | 16µM | ·
Cc1ccc([C@H]2N[C@]3(CCCN(Cc4ccccc4)C3=O)[C@H]3C(=O)N(C)C(=O)[C@@H]23)cc1 | · | · | – | ? | ·
